Assay: Oligofluoro as solubilizing agent, drug release from coated nylon films in water
Type: physicochemical
Conditions: drug at 4 wt %, nylon film, water 24 hours
Description: Several water insoluble drugs, paclitaxel (PTX), rapamycin, and ibuprofen were complexed with Compound 24 at 4 wt %. Coating was made on nylon film by drop casting method. Control films with drug coated only was also prepared in a same manner. Coated nylon films were incubated in water for 24 hours to measure drug release. Percentage drug released in water: Compound 24+PTX=94, PTX control=11; Compound 24+rapamycin=79, rapamycin control=4; Compound 24+ibuprofen=80, ibuprofen control=40.

## CC(C)Cc1ccc(C(C)C(=O)O)cc1 (stereo not shown) [ibuprofen control, ibuprofen]
  Percentage drug released in water: 40%

— patent US10195311B2, “Local delivery of drugs from self assembled coatings” (Interface Biologics, Inc., priority 2009, dated 2019)
